Data from patent US9458414B2, “Cleaning, surfactant, and personal care compositions” (SEGETIS, INC., priority 2012, dated 2016).

Assay: Hair dye active solubility testing

Nc1ccc(N)cc1 [p-phenylene diamine]
Observation (Table 13, 1% active in ketal alcohol (1a)): orange/80 °C
Observation (Table 13, 5% active in ketal alcohol (1a)): Dark brown
Observation (Table 13, 10% active in ketal alcohol (1a)): Undissolved
Observation (Table 14, 5% active in EtLGK): Dark brown
Observation (Table 15, 1% active): Precipitation
